Laboratory results: patent publication US9724379B2, “Therapeutic agents with improved fibrinogen binding” (Haemostatix Limited, priority 2011, dated 2017)

Amino acid sequences for entries named in this document (tags omitted). Residues count along the entry.
UniProt P02675, 31-491: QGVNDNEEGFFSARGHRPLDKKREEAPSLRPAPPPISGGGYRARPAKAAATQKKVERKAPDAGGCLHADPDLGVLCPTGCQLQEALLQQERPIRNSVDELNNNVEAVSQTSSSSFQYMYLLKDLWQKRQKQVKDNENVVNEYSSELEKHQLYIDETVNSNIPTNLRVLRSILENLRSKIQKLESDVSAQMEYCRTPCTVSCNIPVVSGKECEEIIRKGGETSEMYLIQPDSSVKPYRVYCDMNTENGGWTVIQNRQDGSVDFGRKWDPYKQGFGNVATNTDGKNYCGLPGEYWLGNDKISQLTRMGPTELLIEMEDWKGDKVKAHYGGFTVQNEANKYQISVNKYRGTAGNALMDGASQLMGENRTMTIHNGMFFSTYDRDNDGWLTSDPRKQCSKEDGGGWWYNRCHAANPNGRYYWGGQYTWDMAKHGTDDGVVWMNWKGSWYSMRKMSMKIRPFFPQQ
UniProt P02679, 27-433 limits assumed: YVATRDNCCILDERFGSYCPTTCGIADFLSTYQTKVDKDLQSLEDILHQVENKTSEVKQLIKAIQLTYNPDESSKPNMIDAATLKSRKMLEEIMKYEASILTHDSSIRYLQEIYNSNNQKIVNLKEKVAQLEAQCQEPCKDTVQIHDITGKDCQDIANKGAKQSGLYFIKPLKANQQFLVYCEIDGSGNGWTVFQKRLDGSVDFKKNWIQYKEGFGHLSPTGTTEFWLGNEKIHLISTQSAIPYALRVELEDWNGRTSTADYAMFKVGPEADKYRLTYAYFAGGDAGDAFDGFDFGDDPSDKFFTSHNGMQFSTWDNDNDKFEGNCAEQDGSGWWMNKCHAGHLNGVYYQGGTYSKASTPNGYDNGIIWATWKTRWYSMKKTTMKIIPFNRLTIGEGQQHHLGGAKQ

Target: fibrinogen (Homo sapiens, UniProt P02675+P02679)
Assay: Stability in solution at 37° C., assayed by time to visual clot with fibrinogen
Type: physicochemical
Details: stored in solution at 37° C.; FIG. 3
Experimental: PeproStat (comprising fibrinogen-binding peptides, each of sequence GPRPG (SEQ ID NO: 4) immobilised to HSA carrier) was stored in solution for 6 months at 37° C. At time zero, and various times during the storage period, samples of the stored solution were assayed for ability to form a co-polymer with fibrinogen, as follows:
Fibrinogen was diluted in 10 mM HEPES, 0.15M NaCl, pH 7.3+/1 0.2 to 6 mg/ml. 25 μl PeproStat at 5 mg/ml was added to 4000 of the diluted fibrinogen, and the time taken for formation of a visual clot comprising a co-polymer of PeproStat and fibrinogen was recorded.

PeproStat: fibrinogen-binding peptide GPRPG linked via PEG12-maleimide to 2-iminothiolane-thiolated human serum albumin carrier
Stable in solution (ability to form co-polymer with fibrinogen retained): at least 6 months
